Results from PubChem BioAssay (NCATS).
The list shows a part of the results, in another mix than the full data. Records with an inconclusive call do not appear. Activity calls are given as the source filed them. Unless noted, calls come from the whole dose curve; as a rule, active = well fitted curve in the direction sought with a large enough effect; inconclusive = small, poorly fitted or top-dose-only effect, or another doubt; inactive = no such curve, though single readings can be large; an effect the other way counts as inactive or inconclusive.

Tests used:
CRL-7250 = normal cell line; test: Cytotoxic Profiling of Annotated Libraries Using Quantitative High-Throughput Screening (AID 1296008); details: Five cell lines viability, CellTiter-Glo ATP luminescence, 48-72 h, hits give low values; note: nearly all actives have a fitted effect of over 60% in size; for max response: % is set by controls: 0 for no effect and ±100 for the full control effect
Procedure, shortened: (§1)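 Cells exposed to compounds for 48 or 72 hr at 37 degrees Celsius. Viability read as ATP-coupled luminescence with CellTiter-Glo after 10 min at room temperature.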

HEK293 = test: as above; details: Five cell lines viability, CellTiter-Glo ATP luminescence, 48-72 h, hits give low values
Procedure, shortened: as §1

HaCat [1] = test: as above; details: Five cell lines viability, CellTiter-Glo ATP luminescence, 48-72 h
Procedure, shortened: as §1

NIH3T3 [2] = test: as above; details: Five cell lines viability, CellTiter-Glo ATP luminescence, 48-72 h; hits give low values
Procedure, shortened: as §1

HACAT [3] = test: qHTS assay to identify novel small-molecules to repurpose for Merkel cell carcinoma treatment (AID 1296009); details: MCC and control cell lines, CellTiter-Glo viability, 72 h; at 44.8 µM (top of the series); note: nearly all actives have a fitted effect of over 60% in size; for activity change, negative = cytotoxicity: % is set by controls: 0 for no effect and ±100 for the full control effect
Procedure, shortened: (§2)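 Cells were treated for 72 hr at 37 degree celsius with compounds in 8- or 11-point dose response. Viability was read by CellTiter-Glo luminescence, normalized to no-cell (cytotoxicity) and DMSO controls.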

MCC-13 = test: as above; details: MCC and control cell lines, CellTiter-Glo viability, 72 h; at 46 µM (top of the series)
Procedure, shortened: as §2

MCC-26 = test: as above; details: MCC and control cell lines, CellTiter-Glo viability, 72 h; at 46 µM (top of the series)
Procedure, shortened: as §2

MKL-1 = test: as above; details: MCC and control cell lines, CellTiter-Glo viability, 72 h; at 46 µM (top of the series)
Procedure, shortened: as §2

MKL-2 = test: as above; details: MCC and control cell lines, CellTiter-Glo viability, 72 h; at 46 µM (top of the series)
Procedure, shortened: as §2

NIH3T3 [4] = test: as above; details: MCC and control cell lines, CellTiter-Glo viability, 72 h; at 44.8 µM (top of the series)
Procedure, shortened: as §2

UISO = test: as above; details: MCC and control cell lines, CellTiter-Glo viability, 72 h; at 46 µM (top of the series)
Procedure, shortened: as §2

WaGa = test: as above; details: MCC and control cell lines, CellTiter-Glo viability, 72 h; at 46 µM (top of the series)
Procedure, shortened: as §2

[5] = Quantitative High-Throughput drug screen in 47 multiple myeloma cell lines against the NCATS MIPE library collection: XG6_PLB cell viability assay (AID 1919865); details: XG6 myeloma viability, CellTiter-Glo ATP luminescence, 48 h; at 45.8 µM (top of the series); note: nearly all actives have a fitted effect of over 40% in size
Procedure, shortened: (§3)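 500 cells/well per myeloma line exposed to pinned MIPE 4.0 compounds for 48 h at 37 °C, 5% CO2. Viability read as ATP by CellTiter-Glo luminescence, normalised to DMSO-only (100%) and media-only (0%) wells.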

[6] = Quantitative High-Throughput drug screen in 47 multiple myeloma cell lines against the NCATS MIPE library collection: XG1_PLB cell viability assay (AID 1919866); details: CellTiter-Glo ATP, 48 h; at 45.8 µM (top of the series); note: nearly all actives have a fitted effect of over 35% in size
Procedure, shortened: as §3

[7] = Quantitative High-Throughput drug screen in 47 multiple myeloma cell lines against the NCATS MIPE library collection: PCM6_Riken cell viability assay (AID 1919870); details: CellTiter-Glo ATP, 48 h; at 45.8 µM (top of the series); note: nearly all actives have a fitted effect of over 30% in size
Procedure, shortened: as §3

[8] = Quantitative High-Throughput drug screen in 47 multiple myeloma cell lines against the NCATS MIPE library collection: RPMI8226_ATCC cell viability assay (AID 1919871); details: RPMI8226 myeloma viability, CellTiter-Glo ATP luminescence, 48 h; at 45.8 µM (top of the series); note: nearly all actives have a fitted effect of over 30% in size
Procedure, shortened: as §3

[9] = Quantitative High-Throughput drug screen in 47 multiple myeloma cell lines against the NCATS MIPE library collection: OPM2_DSMZ cell viability assay (AID 1919872); details: OPM2 myeloma viability, CellTiter-Glo ATP luminescence, 48 h; at 45.8 µM (top of the series); note: nearly all actives have a fitted effect of over 30% in size
Procedure, shortened: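 CellTiter-Glo luminescence (ATP) after 48 h compound exposure, 37C/5% CO2; 500 cells/well; MIPE 4.0 approved/investigational drugs pinned in; DMSO = 100%, media only = 0% viability.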

[10] = Quantitative High-Throughput drug screen in 47 multiple myeloma cell lines against the NCATS MIPE library collection: KMS28BM_JCRB cell viability assay (AID 1919874); details: CellTiter-Glo ATP, 48 h; at 45.8 µM (top of the series); note: nearly all actives have a fitted effect of over 35% in size
Procedure, shortened: as §3

[11] = qHTS drug screen for cell cycle checkpoint inhibitors in PARPi-resistant BRCA-mutant ovarian cancer cell lines. (AID 1963452; calls by dose curve); details: PEO1/OlaR viability, CellTiter-Glo luminescence, 96 h; hits give low values
Procedure, shortened: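 PEO1, PEO4 and PEO1/OlaR ovarian cancer cells, 600 per well, exposed 96 h at 37C to a dilution series. Viability read by CellTiter-Glo luminescence, normalized to DMSO and empty wells; activity summarized as Z-AUC.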

KB-3-1 = test: Cytotoxic Profiling of Annotated Libraries Using Quantitative High-Throughput Screening (AID 1296008); details: Five cell lines viability, CellTiter-Glo ATP luminescence, 48-72 h, hits give low values; note: nearly all actives have a fitted effect of over 60% in size; for max response: % is set by controls: 0 for no effect and ±100 for the full control effect
Procedure, shortened: as §1

CCOC(=O)N1CCC(=O)CC1
inactive: max response (CRL-7250) -2.46% | max response (HEK293) -1.24% | outcome (HaCat [1]) | outcome (NIH3T3 [2]) | outcome (HACAT [3]) | activity change, negative = cytotoxicity (MCC-13) 6.74% | activity change, negative = cytotoxicity (MCC-26) 5.04% | activity change, negative = cytotoxicity (MKL-1) 22.2% | activity change, negative = cytotoxicity (MKL-2) 6.62% | outcome (NIH3T3 [4]) | activity change, negative = cytotoxicity (UISO) 11.7% | activity change, negative = cytotoxicity (WaGa) 7.91%

CCC(=O)N(c1ccccc1)C1CCNCC1
inactive: max response (CRL-7250) -2.98% | max response (HEK293) -1.73% | outcome (HaCat [1]) | max response (NIH3T3 [2]) 0.954% | outcome (HACAT [3]) | activity change, negative = cytotoxicity (MCC-13) 12.9% | activity change, negative = cytotoxicity (MCC-26) -3.85% | activity change, negative = cytotoxicity (MKL-1) -10.3% | activity change, negative = cytotoxicity (MKL-2) -0.735% | activity change, negative = cytotoxicity (UISO) -9.91% | activity change, negative = cytotoxicity (WaGa) -20.1%

CCOC(=O)C(=O)CBr
inactive: viability (% of control) [5] 102% | viability [6] 87.7% | viability (% of control) [7] 82.5% | viability (% of control) [8] 83.4% | viability (% of DMSO) [9] 112% | viability, % of control [10] 112% | Z-AUC [11] 0.416 | max response (CRL-7250) 2.38% | max response (HEK293) -2.98% | outcome (HaCat [1]) | max response (KB-3-1) -2.32% | max response (NIH3T3 [2]) -2.77% | outcome (HACAT [3]) | activity change, negative = cytotoxicity (MCC-13) 0.235% | activity change, negative = cytotoxicity (MCC-26) -6.43% | activity change, negative = cytotoxicity (MKL-1) -10.8% | activity change, negative = cytotoxicity (MKL-2) -19.1% | activity change, negative = cytotoxicity (UISO) -0.074% | activity change, negative = cytotoxicity (WaGa) -4.74%

CC(=O)N1CCc2ccc(N(C(=O)/C=C/c3cccc(C#N)c3)C3CCN(CCC4CCCC4)CC3)cc21
inactive: max response (CRL-7250) -13.4% | max response (HEK293) -7.17% | max response (KB-3-1) -0.0041% | max response (NIH3T3 [2]) -78.6%
